# Values quoted from earlier work as cited in patent publication US20240189293A1, “Compositions And Methods For Treating Gulf War Illness” (published 2024).
# Conditions: oral
smiles,measurement,value
CN(C)C(=O)Oc1ccc[n+](C)c1,bioavailability,poor bioavailability
